Data published in US11440939B2, “Anticancer peptides” (IDP DISCOVERY PHARMA, S.L., priority 2017, dated 2022).

Experiments:
Format in all cases: cell-based
NCI-H82 = conditions: 72 h
Method: NCI-H82, epithelial (small cell lung cancer, SCLC), ATCC-CRL-5811;
(§1) Cell line MCF-7 was cultured in incubator under CO2 (6%) at 37° C. in DMEM high glucose (Dulbecco's Modified Eagle Solution, Gibco-BRL 31966-21) medium with 10% fetal bovine serum inactivated (FBS) (Gibco-BRL 10106-169). Cell lines HL-60, NCI-H524, NCI-H526, NCI-H69, NCI-H82, NCI-H187 and H5B were cultured in an incubator at 37° C. in RPMI-1640 (Sigma R8758) medium with 10% of fetal bovine serum inactivated (FBS) and 2 mM glutamine (Sigma G7513). Cell line NCI-H510A was cultured in incubator in F12K medium with 10% of fetal bovine serum inactivated (FBS). […]
(§2) During the amplification step and the assays, adherent cells were rinsed with DPBS (Dulbecco's Phosphate Buffered Saline, Sigma D1283) three times and afterward treated for 5 minutes with trypsin ([…]) (Gibco-BRL, 15400054) in solution of DPBS at 37° C., and, once detached, transferred in the culturing medium. […] Cells were counted in a Neubauer chamber after labelling with Tripan-Blue. […]
(§3) Cells were incubated during 72 h in incubator under CO2 atmosphere at 37° C. Cell viability was measured by means of MTT (3-(4,5-dimethylthiazol-2-yl)-2,5-diphenyltetrazolium bromide) assay, Alamar Blue® (Biosource DAL1100) and Hexosaminidase activity test, consecutively, following manufacturer instructions.
(§4) MTT: 1. […] Absorbance at 570 nm was finally measured. […]

NCI-H187 = conditions: 72 h
Method: NCI-H187, epithelial (small cell lung cancer, SCLC), ATCC-CRL-5804;
as §1, §2, §3, §4

cancer cell lines = assay: Inhibition of cancer cell proliferation, general statements
Method: MCF-7, NCI-H187, NCI-H69, NCI-H526 and H5B cells were seeded at a density of 5000 cells/well; NCI-H524 and NCI-H82 were seeded at a density of 2500 cells/well; HL-60 and NCI-H510A at 10000 cells/well in 100 μl of medium in 96 well plates. After 24 h, the compounds to be tested were added to calculate the dose/response curve at the starting concentration of 100 μM with serial dilutions (1:1). Controls were the untreated cells. Each experiment was performed in triplicate.
as §3
Data analysis was performed calculating the percentage of cell viability normalized vs. the values of negative control, which was considered equal to 100%. The dose/response curve was fitted through the sigmoidal equation dose-response (variable slope) and the EC50 values were calculated as follow: Y=Bottom+(Top−Bottom)/(1+10^{[(Log EC50−X)*HillSlope]},

- EC50 (NCI-H82): > 100 µM
- EC50 (NCI-H187): > 100 µM
SMILES: CC(C)C[C@H](NC(=O)[C@H](CC(N)=O)NC(=O)[C@@H](NC(=O)[C@H](CC(C)C)NC(=O)[C@H](CCCCN)NC(=O)[C@@H](NC(=O)[C@@H](N)CCCNC(=N)N)C(C)C)C(C)C)C(=O)NCC(=O)N[C@@H](Cc1ccccc1)C(=O)N[C@@H](C)C(=O)N[C@H](C(=O)N[C@@H](CC(C)C)C(=O)N[C@@H](CCCNC(=N)N)C(=O)N[C@@H](CCC(=O)O)C(=O)N[C@@H](Cc1c[nH]cn1)C(=O)N[C@H](C(=O)N1CCC[C@H]1C(N)=O)C(C)C)[C@@H](C)O [LH01, reference compound]
- inhibition of cancer cell proliferation (in words) (cancer cell lines): not effective
